ChEMBL document CHEMBL5154880, “Structure-Based Design of a Novel Class of Autotaxin Inhibitors Based on Endogenous Allosteric Modulators” (J Med Chem, 2022)

Target: Autotaxin (Rattus norvegicus) (UniProt Q64610)
Experiment: Inhibition of rat ATX lysoPLD activity using LPC as substrate assessed as residual activity measured after 60 mins by HVA fluorescence based analysis relative to control

C[C@H](CCC(=O)O)[C@H]1CC[C@H]2[C@@H]3[C@@H](O)C[C@@H]4C[C@H](O)CC[C@]4(C)[C@H]3CC[C@]12C
Activity: 61%
